According to paper PMC6279743, “A small molecule ApoE4-targeted therapeutic candidate that normalizes sirtuin 1 levels and improves cognition in an Alzheimer’s disease mouse model” (Scientific Reports, 2018):

Tests used:
Assay type in all cases: in vivo
[1] = system: SirT1 levels in E4FAD mice; test: Second oral 56-day study, brain SirT1 by AlphaLISA; conditions: oral 20 mg/Kg BID, 56 days
Procedure: E4FAD mice were 10–12 mo and NTg mice 7–9 mo at the start of the study.
Mice were euthanized and blood/tissues collected 2 hrs after dosing on Day 56 by the method described above for PK. Hip and FrCx were collected for analysis of SirT1, sAPPα, and Aβ1-42 levels by AlphaLISA. For Aβ1-42 the Perkin Elmer kit AL276C was used. Protein concentrations were determined using the Bradford protein assay. The sAPPα and sAPPβ AlphaLISAs were similar to the SirT1 AlphaLISA (see Supplementary Fig. S3) but the former uses anti-sAPPα antibody AF1168 and 2B3-biotinylated antibodies and the latter an anti-sAPPβ antibody (IBL Cat. #18957) and an anti-N-terminal APP antibody (R&D Systems AF1168) instead of anti-SirT1 antibodies. Brain tissue and plasma were sent to IAS for A03 level analysis.

[2] = system: SirT1 levels in E4FAD mice; test: Pilot 28-day SQ efficacy study, brain SirT1 by AlphaLISA; conditions: SQ 10 mg/kg/day, 28 days; for SirT1 in frontal cortex (FrCx), all mice / SirT1 in parietal cortex (PtCx): E4FAD mice, vs E4FAD vehicle
[3] = system: SirT1 levels in E4FAD mice; test: First oral 25-day study, brain SirT1 by AlphaLISA; conditions: oral 20 mg/Kg BID, 25 days, vs vehicle
Description: Mice were 9–14 (most >11) months of age at the start of the study and n = 12 (5 females/7 males). […] The method for oral delivery was not gavage, but rather oral feeding of a volume of formulation based on the individual weights of the mice to give the specified dose is introduced to the mouse’s mouth using a pipette tip; this method reduces risk of esophageal injury.
Mice were euthanized and blood/tissues collected 2 hrs after dosing on Day 25 by the method described above for PK. FrCx, PtCx, and hippocampi (Hip) were collected from all mice for SirT1 and sAPPα level determination by AlphaLISA. Protein concentration was determined using a Bradford protein assay. Brain and plasma levels of A03 were determined at IAS.

[4] = Pharmacokinetics after subcutaneous (SQ) injection in mice; conditions: SQ 10 mg/kg, n = 1

Structure (SMILES)	SirT1 in PtCx [1]	SirT1 in FrCx ([1]; vs vehicle)	SirT1 in hippocampus (Hip) ([1]; vs vehicle)	SirT1 in frontal cortex (FrCx), all mice [2]	SirT1 in parietal cortex (PtCx) [2]	SirT1 in frontal cortex (FrCx), males ([2]; male E4FAD mice)	SirT1 in PtCx and FrCx [3]	SirT1 in hippocampus (Hip) [3]	Tmax, brain [4]
CC(N)C(=O)OC(C)(C)Cc1ccc(Cl)cc1 (centres unmarked) [A03, alaproclate]	no significant increases	no significant increase	significant increase	trend to a significant increase	no significant increase	significant increase	slight increase	trend (p = 0.0805) to an increase	–
C[C@H](N)C(=O)OC(C)(C)Cc1ccc(Cl)cc1 [E1]	–	–	–	did not increase SirT1	no significant increase	–	–	–	one
